Reference: US20170189376A1, “BUTYROYLOXYMETHYL DIETHYL PHOSPHATE COMPOUNDS AND USES THEREOF” (MOR RESEARCH APPLICATIONS LTD., priority 2016, published 2017)

Legend:
[1] = system: MyLa cells; experiment: FACS analysis with annexin V and PI staining (apoptosis), MyLa cells
[2] = system: Hut78 cells; assay type: cell-based, homo sapiens
[3] = system: Hut78 cells; experiment: FACS analysis with annexin V and PI staining (apoptosis), Hut78 cells
[4] = system: MyLa cells; assay type: cell-based, human
[5] = system: Sezary syndrome Peripheral blood lymphocytes SPBL; experiment: MTT-based viability assay, Sezary PBL (SPBL)
[6] = system: Hut78 cells; experiment: MTT-based viability assay, Hut78 cells
[7] = system: MyLa cells; experiment: MTT-based viability assay, MyLa cells

O=C(CCCCCCC(=O)Nc1ccccc1)NO [SAHA, Suberoylanilide hydroxamic acid]
apoptosis after short exposure compared to long exposure (fold less) [1]: 2.75 fold | IC50 short exposure/IC50 long exposure [2]: 17.1 | apoptosis after short exposure compared to long exposure (fold less) [3]: 2.5 fold | IC50 short exposure/IC50 long exposure [4]: 14.3 | Selectivity index (SI) ([5]; SI=IC50 NPBL/IC50 Sezary PBL): 1.21 | selectivity of induced death vs NPBL ([5]; SPBL vs NPBL, by IC50 values): nonselective death | selectivity vs NPBL by dose-response titration ([6]; Hut78 vs NPBL, ANOVA with repeated measures): significantly selective | Selectivity index (SI) ([6]; SI=IC50 NPBL/IC50 Hut78): 3 | selectivity vs NPBL by dose-response titration ([7]; MyLa vs NPBL, ANOVA with repeated measures): significantly nonselective | Selectivity index (SI) ([7]; SI=IC50 NPBL/IC50 MyLa): 0.5
